1 compound from US20150065447A1, “SURVIVAL BENEFIT IN PATIENTS WITH SOLID TUMORS WITH ELEVATED C-REACTIVE PROTEIN LEVELS” (Incyte Corporation, priority 2013, published 2015) can be followed below.

Sequences of proteins named here, by UniProt entry; tags and fusion partners are left off. Residues count along the entry.
UniProt P23458, 849-1154: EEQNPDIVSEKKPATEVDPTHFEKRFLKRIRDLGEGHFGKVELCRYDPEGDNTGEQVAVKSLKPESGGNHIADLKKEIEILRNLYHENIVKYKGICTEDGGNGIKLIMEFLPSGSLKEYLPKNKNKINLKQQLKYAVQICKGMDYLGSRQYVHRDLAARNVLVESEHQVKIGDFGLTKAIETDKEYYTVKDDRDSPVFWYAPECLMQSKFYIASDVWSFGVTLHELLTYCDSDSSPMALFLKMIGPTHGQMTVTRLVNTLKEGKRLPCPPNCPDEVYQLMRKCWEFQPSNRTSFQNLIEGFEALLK

This test deals with T1, human JAK1 (a.a. 837-1142) (Homo sapiens, UniProt P23458).
T1 construct: human JAK1 (a.a. 837-1142); His tag (N); made in house; host or cells: insect cells (baculovirus)
The test is described as follows: In vitro JAK Kinase Assay (HTRF), JAK1. It counts as biochemical. The note with it: 1 mM ATP.

`CN(C)Cc1cc(F)cc(OC2CCN(CC(CC#N)n3cc(-c4ncnc5[nH]ccc45)cn3)CC2)c1` (single isomer, unassigned) [Compound 14, 4-(4-{3-[(dimethylamino)methyl]-5-fluorophenoxy}piperidin-1-yl)-3-[4-(7H-pyrrolo[2,3-d]pyrimidin-4-yl)-1H-pyrazol-1-yl]butanenitrile] showed an IC50 of less than 10 nM.
